The Ki is a dissociation constant, usually derived from enzyme kinetics or from competition with a known ligand. The low end stands for tighter binding, the high end for weaker binding.

The chains behind the UniProt entries cited, without tags or fusion partners.
UniProt C7C422, whole entry, looked up, species assumed: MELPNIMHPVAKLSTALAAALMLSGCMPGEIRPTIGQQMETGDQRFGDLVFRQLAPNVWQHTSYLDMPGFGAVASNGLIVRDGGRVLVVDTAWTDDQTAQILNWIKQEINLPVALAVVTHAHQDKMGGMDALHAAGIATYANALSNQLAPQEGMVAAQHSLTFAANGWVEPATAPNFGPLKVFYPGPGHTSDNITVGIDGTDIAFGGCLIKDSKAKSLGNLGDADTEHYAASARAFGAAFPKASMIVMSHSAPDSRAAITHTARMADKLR

One molecule from patent US20250325542A1, “INHIBITORS OF ANTIMOCROBIAL RESISTANCE AND METHOS USING SAME” (Baylor College of Medicine, priority 2022, published 2025) can be followed below.

The target of the experiment is NDM-1 (Klebsiella pneumoniae, UniProt C7C422). Kind of experiment: biochemical.

On to `CN(C)C(=O)c1ccc(CNCc2ccc(O)c(C(=O)O)c2)s1` [CDD-2350, 5-((((5-(dimethylcarbamoyl)thiophen-2-yl)methyl)amino)methyl)-2-hydroxybenzoic acid], for which the Ki is > 100 µM.
